Measured values from patent US20220372031A1, “NOVEL TRICYCLIC AROMATIC HETEROCYCLIC COMPOUND, PREPARATION METHOD THEREFOR, PHARMACEUTICAL COMPOSITION AND APPLICATION THEREOF” (SHANGHAI LONGWOOD BIOPHARMACEUTICALS CO., LTD., priority 2019, published 2022).

Amino acid sequences for entries named in this document (tags omitted). Residues count along the entry.
UniProt Q9NZQ7, 19-238 limits assumed: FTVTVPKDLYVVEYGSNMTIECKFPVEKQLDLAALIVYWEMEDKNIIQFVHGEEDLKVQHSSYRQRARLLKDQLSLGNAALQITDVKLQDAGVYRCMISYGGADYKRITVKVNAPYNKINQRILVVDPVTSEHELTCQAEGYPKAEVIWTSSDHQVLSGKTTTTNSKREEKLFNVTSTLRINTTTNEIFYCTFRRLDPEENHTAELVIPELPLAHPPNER

Target: PD-1/PD-L1 (Homo sapiens, UniProt Q9NZQ7)
Test: PD-1/PD-L1 homogeneous time-resolved fluorescence (HTRF) binding assay
Conditions: PD-1/PD-L1 HTRF binding, ~3 nM PD1, 10 nM PD-L1, 25° C., PBS pH 7.4
Procedure: Assays were performed in standard black 384-well polystyrene plates and a final volume was 20 μL. The inhibitor was first serially diluted with DMSO and added to the wells of the plate, followed by the addition of other reaction components. The final concentration of DMSO in the assay was 1%. Assays were performed at 25° C. in PBS buffer (pH 7.4) containing 0.05% Tween-20 and 0.1% BSA. Recombinant human PD-L1 protein (19-238) with a His-tagged at the C-terminus was purchased from AcroBiosystems (PD1-H5229). Recombinant human PD-1 protein (25-167) with an Fc tag at the C-terminus was also purchased from AcroBiosystems (PD1-H5257). The PD-L1 and PD-1 proteins were diluted in assay buffer and then […] of the solution was extracted and added to the wells of the plate. Plates were centrifuged and proteins and inhibitors were preincubated for 40 minutes. After incubation, 0.1 μl of HTRF detection buffer containing europium […] labeled anti-human IgG (PerkinElmer-AD0212), Fc-specific and anti-His SureLight®-Allophycocyanin (APC, PerkinElmer-AD0059H) conjugated antibodies was added. After centrifugation, the plates were incubated at 25° C. for 60 minutes. Data was read in a PHERAstar FS plate reader (665 nm/620 nm ratio). Final concentrations in the assay were ˜3 nM PD1, 10 nM PD-L1, 1 nM europium anti-human IgG, and 20 nM anti-His-allophycocyanin. Activity data were fitted using GraphPad Prism 5_0 software to derive IC50 values for inhibitors.

| IC50 | Compound |
| --- | --- |
| < 10 nM | N#Cc1c2c(cc3nc(-c4cccc(-c5cccc(Nc6nccc7cc(CN8CC[C@@H](O)C8)cnc67)c5Cl)c4Cl)oc13)[C@H](N1CC[C@@H](C(=O)NS(=O)(=O)C3CC3)C1)CC2 [Compound 236] |
| < 10 nM | Cc1c(Nc2nccc3cc(CN4CC[C@@H](O)C4)cnc23)cccc1-c1cccc(-c2nc3cc4c(c(C#N)c3o2)CCC4N2CC(C(=O)O)C2)c1C (stereo partly drawn) |
| < 10 nM | N#Cc1c2c(cc3nc(-c4cccc(-c5cccc(Nc6nccc7cc(CN8CC[C@@H](O)C8)cnc67)c5Cl)c4Cl)oc13)[C@H](NCC(=O)O)CC2 |
